The values below come from patent US8426169B2, “Glycosylate derivatives of mithramycin, method of preparation and uses thereof” (University of Kentucky Research Foundation, priority 2007, dated 2013).

The test system of this data set is tumor cell lines. Particulars: across the tumor cell lines assayed; 48 hours of exposure; SRB.
Turning to `CO[C@H](C(=O)[C@@H](O)[C@@H](C)O)[C@@H]1Cc2cc3cc(O[C@H]4C[C@@H](O[C@H]5C[C@@H](O)[C@H](O)C(C)O5)[C@H](O)C(C)O4)c(C)c(O)c3c(O)c2C(=O)[C@H]1O[C@H]1C[C@@H](O[C@H]2C[C@@H](O[C@H]3C[C@@H](O)[C@H](O)C(C)O3)[C@@H](O)C(C)O2)[C@H](O)C(C)O1` (stereo partly drawn) [formula VIII], the “cytotoxic activity against the tumor cell lines assayed (ranking in words)” value is on record as “the most active (with an activity similar to that of MTM)”. To `CO[C@H](C(=O)[C@@H](O)[C@@H](C)O)[C@@H]1Cc2cc3cc(O[C@H]4C[C@@H](O[C@H]5C[C@@H](O)[C@H](O)C(C)O5)[C@H](O)C(C)O4)c(C)c(O)c3c(O)c2C(=O)[C@H]1O[C@H]1C[C@@H](O[C@H]2C[C@@H](O)[C@@H](O)C(C)O2)[C@H](O)C(C)O1` (stereo partly drawn) [formula XII, demycarosyl-MTM] belongs “the least active”. Regarding `CO[C@H](C(=O)[C@@H](O)[C@@H](C)O)[C@@H]1Cc2cc3cc(O[C@H]4CC[C@H](O)C(C)O4)c(C)c(O)c3c(O)c2C(=O)[C@H]1O[C@H]1C[C@@H](O[C@H]2C[C@@H](O[C@H]3C[C@](C)(O)[C@H](O)C(C)O3)[C@@H](O)C(C)O2)[C@H](O)C(C)O1` (stereo partly drawn) [formula XIII], the “cytotoxic activity against the tumor cell lines assayed (ranking in words)” value is listed as “the least active”.
